These results are taken from patent US20180259512A1.

This test has as its target human thyroid stimulating hormone receptor (human) (UniProt P16473). Description: cell-based or functional assay.

Consider “bovine TSH (from UniProt P01217 25-120; P01223 21-132) (ligand)”, for which the S/N ratio of luminescence in the presence or absence of bTSH worked out at 50 fold, the minimum detectable quantity for bTSH (aequorin luminescence of CHO cells expressing human TSHR) worked out at 0.16 µU/mL and the signal to blank ratio (S/N ratio) of luminescence at 100 µU/mL of bTSH is 45 times.
